Ab-14 light chain CDR variants: yeast mating affinities

Source: Li et al. 2023 (doi:10.1038/s41467-023-39022-2), MIT Lincoln Laboratory and A-Alpha Bio; data file from the FLAb repository.

Target peptide (SARS-CoV-2 spike, HR2 region): PDVDLGDISGINAS

Parent: Ab-14, a human scFv built as VH, a (GGGGS)3 linker, VL. Only the CDRs of the light chain vary.
VH: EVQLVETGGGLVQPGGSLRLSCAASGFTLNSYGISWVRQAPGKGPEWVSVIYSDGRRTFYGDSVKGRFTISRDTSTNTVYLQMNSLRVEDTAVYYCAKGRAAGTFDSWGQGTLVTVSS
VL: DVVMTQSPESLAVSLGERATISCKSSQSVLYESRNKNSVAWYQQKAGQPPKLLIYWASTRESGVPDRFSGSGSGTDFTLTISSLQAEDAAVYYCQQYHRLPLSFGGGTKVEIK

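This is the validation round: designs drawn from the data on random variants, tested in the same kind of assay. Their group label is 14L_En_HC (En: ensemble of fine-tuned language models; HC: hill climbing; a sequence that several methods proposed may carry one label only). Affinity was read by AlphaSeq, a pooled yeast mating assay with surface-displayed partners. The frequency of each diploid, read from paired DNA barcodes, reflects how well the two displayed proteins bind. The ratio of observed to expected reads was calibrated, replicate by replicate, on BCL2-family standards whose Kd was known from biolayer interferometry. Each pool was mated in six replicate cultures.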

The parent's light chain CDRs are KSSQSVLYESRNKNSVA, WASTRES, QQYHRLPLS; each variant's own CDRs replace them letter for letter. Numbers give log10(Kd / nM), so 0 is 1 nM and 3 is 1 µM. Smaller is tighter. Where no diploid with the target was found in that replicate, the entry reads "ND": below detection, most likely a poor binder, though not proof of it. Background: pairings of all light chain designs with three empty control strains gave a value in 4% of cases (median 2.64, 5th percentile 1.59). Values in that range, when seen in few replicates, are hard to tell from nonspecific mating. For each scFv, signals with the empty controls are counted beside the result, with their mean in brackets.

CDR-L1 | CDR-L2 | CDR-L3 | log10 Kd, replicates | empty controls
KLGQMTAIESRNLNSVA | QMDTREQ | QQYHRLPLS | ND ND ND ND ND ND | 0/18
HISPLFMVESRLKNSVA | QTSTRES | QQYDRLPLS | 0.16 0.17 0.07 0.23 0.11 0.41 | 1/18 (2.57)
KLSQVTNSEHKVKNSIA | EMVMREK | QQYDRLPLS | 0.82 0.54 0.30 0.46 0.35 0.50 | 0/18
KLSVSWLFESIEKNSVA | ERSTRES | QDYNRLPLS | 1.20 0.70 0.72 0.53 0.72 0.96 | 0/18
MISGSVMSESRLKNSVA | QTTTRES | QQYDRFPLS | 1.69 2.20 1.52 1.82 1.29 1.12 | 3/18 (1.67)
KISQMVNFETTHINAVA | QMSTREE | QQYFRLPLS | 0.83 0.37 0.32 0.39 0.36 0.78 | 0/18
TISMSMNWLTFNKNNIA | EESTRED | QQYDRLPLS | 2.17 ND ND 2.40 ND 1.10 | 0/18
TISQTTYWESRNKNSVA | QTSTREE | QDYDRLPLS | 0.65 0.02 0.01 -0.13 -0.04 0.03 | 0/18
MISDLMLYGSRAKNPIA | NAETREY | QQYHRLPLE | 0.50 0.49 0.36 0.29 0.37 0.59 | 2/18 (2.38)
KISQMYRYEMQNHSSIA | EANTREQ | QSYHRLPLS | ND ND 1.73 1.41 ND 3.47 | 1/18 (2.82)
KISGQYRWEQLSKNSIA | EAQTRLK | QQYHRLPLS | 0.89 0.96 0.94 0.91 1.02 1.48 | 2/18 (2.98)
TISTSMRYESSLKNAIA | NAQTREY | QQYHRLPLS | 1.53 1.76 2.03 1.19 1.74 3.24 | 0/18
KLSQSVNMTGKNKNSVA | ELSFREQ | QQYERLPLS | 1.85 1.40 1.93 1.91 2.26 2.22 | 2/18 (2.66)
KLSQSVMFMSGVYNSVA | QMSTRAE | QQYNRLPLA | 0.64 0.57 0.56 0.33 0.65 0.77 | 2/18 (2.46)
MISDTGLHDSRMQNSVA | NNQTREA | QQYHRLPLS | 1.91 2.19 2.18 2.09 1.73 1.55 | 1/18 (2.28)
TISQSWFVESRNKNNVA | EMSTREN | QDYDRLPLS | 0.56 0.69 0.46 0.27 0.29 0.75 | 2/18 (2.69)
KILGEIENQTYNRNSVA | HSTTRED | QSYHRLPLS | 0.58 0.46 0.58 0.32 0.50 0.48 | 4/18 (3.39)
VLSHSTDLESVHKNSIA | DLMTRES | QQYHRLPLS | 0.97 0.54 0.60 0.30 0.66 0.67 | 1/18 (2.09)
KLSMLYRYESENKNSIA | ELVTRMS | QQYHRLPLS | ND ND ND ND ND ND | 1/18 (0.18)
ILSQSVLMGMHLKNSVA | QASTRFS | QQYHRLPLM | 2.56 1.91 ND 2.09 2.11 1.76 | 0/18
IISQSMLYESATHNSIA | QTSTREE | QQYHHLPLI | 0.87 0.76 1.38 1.75 0.61 1.04 | 0/18
KLSISYLFESQNKASIA | ENSTRES | QHYHRLPLS | 1.57 1.39 1.61 1.77 1.41 1.75 | 1/18 (3.78)
LISSVWDYGSRNYNSVA | QTSTRES | QQYDRLPLE | 0.67 0.89 0.91 0.91 0.80 0.98 | 1/18 (1.70)
TLGQSTLMESRNKNNVA | QMSTREK | QQYDRLPLS | 0.56 0.15 0.01 -0.04 0.43 0.28 | 0/18
KLSMVTEYESRNKNNVA | DLSTRGS | QDYHRLPLS | -0.20 -0.21 -0.37 -0.34 -0.30 -0.21 | 0/18
KLYQSMGYLSRAKNSIA | DMSRREN | QQYHRLPLS | 0.30 0.39 0.22 0.07 0.20 0.34 | 0/18
KLSMSYRFESENKNSIA | ELVTRMS | QQYHRLPLS | 1.95 0.49 0.22 1.42 1.05 ND | 0/18
SLMQVGGYETNNKNSIA | DLRTRES | QQYHRLPLS | 0.75 1.42 0.63 1.00 1.22 1.02 | 0/18
NFPQEAMYESHFKNNVA | QTSTREP | QQYDHLPLS | 0.55 0.58 0.45 0.20 0.61 0.66 | 2/18 (2.83)
TLVQSVMGGSRTKNSIA | NAETRYD | QHYHRLPLS | 0.67 0.70 0.62 0.66 0.73 0.76 | 3/18 (3.28)
HISDLIMVASRNKNSVA | EESTRND | QQYHRLPLS | 0.45 0.59 0.13 0.30 0.80 0.64 | 0/18
KFSQMVLTGVYVSNSVA | QMSTRVN | QQYHRLPLM | 1.17 0.87 0.79 1.05 1.01 1.00 | 1/18 (3.28)
KLSSFHNVETINKSNVA | EMVTREN | QQYDRLPLS | 1.89 ND 2.77 ND 2.38 ND | 2/18 (2.26)
KLSQSVLFFGHAINSVA | EMETREN | QQYDRLPLS | 0.68 0.79 0.90 0.79 1.03 1.03 | 2/18 (3.32)

Repeated from above, the 5 best binders with a signal in all replicates:

CDR-L1,CDR-L2,CDR-L3,"log10 Kd, replicates",empty controls
KLSMVTEYESRNKNNVA,DLSTRGS,QDYHRLPLS,-0.20 -0.21 -0.37 -0.34 -0.30 -0.21,0/18
TISQTTYWESRNKNSVA,QTSTREE,QDYDRLPLS,0.65 0.02 0.01 -0.13 -0.04 0.03,0/18
HISPLFMVESRLKNSVA,QTSTRES,QQYDRLPLS,0.16 0.17 0.07 0.23 0.11 0.41,1/18 (2.57)
TLGQSTLMESRNKNNVA,QMSTREK,QQYDRLPLS,0.56 0.15 0.01 -0.04 0.43 0.28,0/18
KLYQSMGYLSRAKNSIA,DMSRREN,QQYHRLPLS,0.30 0.39 0.22 0.07 0.20 0.34,0/18

The authors averaged sequences with at least three values out of six and counted those with two or fewer as poor binders. Of ten entries with the parent sequence, four were seen in most replicates (averages 0.34 to 2.37), three in one and three in none, so single entries are noisy. Values of this round are not directly comparable with the first-round values of the same sequences.